Patent US20150005307A1, “Drug Delivery Technology” (LondonPharma Ltd., priority 2011, published 2015)

Test: Solubility of PDE5 inhibitors in formulation carriers and co-solvents

With sildenafil mesylate the “solubility with 20% w/w ethanol” value (20% w/w ethanol, compared with 100 mg/ml in water) was “unaltered”, the “solubility with co-solvent Transcutol HP” value (Transcutol HP (diethylene glycol monoethyl ether Ph Eur) 20% w/w) was 60 mg/mL and the “solubility in aqueous formulations” value (aqueous formulations) was “up to 100 mg/ml”. The “solubility with co-solvent glycerol” value (glycerol 20% w/w) was 60 mg/mL, the “effect of caffeine and sodium dihydrogen phosphate on solubility” value (inclusion of caffeine and sodium dihydrogen phosphate) was “did not appear to significantly improve the solubility” and the “solubility with co-solvent propylene glycol” value (propylene glycol 20% w/w) was 80 mg/mL. The solubility in water (water) was “up to 100 mg/ml”.
